# Earlier results as cited in US5480969A, “Antagonists of LHRH” (The Administrators of the Tulane Educational Fund, priority 1992, dated 1996).
# System: rat mast cells
# Conditions: cited from earlier work; for Histamine release ED50: Table V
Substance,Histamine release ED50 [µg/mL],also measured
"[N-Ac-D-2-Nal^1, D-pClPhe^2, D-3-Pal^3, Arg^5, D-Glu(AA)^6, D-Ala^10 ] LHRH [Nal-Glu]",1.6,
"[N-Ac-D-2-Nal^1 ; D-pFPhe^2, D-Trp^3, D-Arg^6 ] LHRH [Nal-Arg]",0.17,
"[N-Ac-D-2-Nal^1, D-pClPhe^2, D-3-Pal^3, Arg^5, D-3-Pal^6, D-Ala^10 ] LHRH",,histamine release (in words) (background): undesirable
"[N-Ac-D-2-Nal^1, D-pClphe^2, D-3-Pal^3, c-pzACAla^5, D-PicLys^6, ILys^8, D-Ala^10 ] LHRH [Analog 10 (Table III)]",,ED50 for hist. release (Table III parent analogs from literature): 49 ± 4.8 µg/mL
